Target: WDR5 (WD (Trp-Asp) repeat domain 5) (UniProt P61964 1-334)
Assay: fluorescence polarisation

With XRV (Deg (diethylglycine) at position 1; N-terminal acetyl; C-terminal amide) [Deg-RV] the Ki was 4 nM.
